Earlier results on one compound are cited in PMC9769694, “Discovery of Two Inhibitors of the Type IV Pilus Assembly ATPase PilB as Potential Antivirulence Compounds” (Microbiology Spectrum, 2022).

Amino acid sequences for entries named in this document (tags omitted).
UniProt G2LDI3, entry or part of it: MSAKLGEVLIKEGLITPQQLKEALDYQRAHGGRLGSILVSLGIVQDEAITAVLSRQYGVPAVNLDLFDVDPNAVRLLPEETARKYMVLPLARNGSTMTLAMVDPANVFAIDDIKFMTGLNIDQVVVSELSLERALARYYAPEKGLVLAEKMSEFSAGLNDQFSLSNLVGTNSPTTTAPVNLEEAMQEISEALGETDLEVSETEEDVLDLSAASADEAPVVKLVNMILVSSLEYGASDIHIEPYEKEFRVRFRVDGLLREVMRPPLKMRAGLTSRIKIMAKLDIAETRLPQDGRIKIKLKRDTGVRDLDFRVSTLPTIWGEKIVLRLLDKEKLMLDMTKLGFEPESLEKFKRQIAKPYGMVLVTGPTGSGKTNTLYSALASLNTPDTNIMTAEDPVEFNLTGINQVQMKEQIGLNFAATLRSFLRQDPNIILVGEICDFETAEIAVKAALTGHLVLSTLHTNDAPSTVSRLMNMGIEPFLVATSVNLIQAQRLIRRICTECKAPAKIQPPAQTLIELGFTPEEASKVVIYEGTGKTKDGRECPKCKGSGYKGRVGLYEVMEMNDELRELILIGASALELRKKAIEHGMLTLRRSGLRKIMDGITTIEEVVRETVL

This data set concerns the target CtPilB (Chloracidobacterium thermophilum, UniProt G2LDI3). The note with it: read-out: IC50 from effect on MANT-ATP binding; cited from earlier work.

As for `O=c1c(O)c(-c2ccc(O)c(O)c2)oc2cc(O)cc(O)c12` [quercetin], the IC50 was 2100 nM.

Broadly, the IC50 is the concentration needed to halve the response being measured.
